Data from PMC4266452, “Prediction of Thorough QT study results using action potential simulations based on ion channel screens” (Journal of Pharmacological and Toxicological Methods, 2014).

Sequences of proteins named here, by UniProt entry; tags and fusion partners are left off. A change or cut given only in a name is not applied to a line headed by its entry.
UniProt Q14524, whole entry: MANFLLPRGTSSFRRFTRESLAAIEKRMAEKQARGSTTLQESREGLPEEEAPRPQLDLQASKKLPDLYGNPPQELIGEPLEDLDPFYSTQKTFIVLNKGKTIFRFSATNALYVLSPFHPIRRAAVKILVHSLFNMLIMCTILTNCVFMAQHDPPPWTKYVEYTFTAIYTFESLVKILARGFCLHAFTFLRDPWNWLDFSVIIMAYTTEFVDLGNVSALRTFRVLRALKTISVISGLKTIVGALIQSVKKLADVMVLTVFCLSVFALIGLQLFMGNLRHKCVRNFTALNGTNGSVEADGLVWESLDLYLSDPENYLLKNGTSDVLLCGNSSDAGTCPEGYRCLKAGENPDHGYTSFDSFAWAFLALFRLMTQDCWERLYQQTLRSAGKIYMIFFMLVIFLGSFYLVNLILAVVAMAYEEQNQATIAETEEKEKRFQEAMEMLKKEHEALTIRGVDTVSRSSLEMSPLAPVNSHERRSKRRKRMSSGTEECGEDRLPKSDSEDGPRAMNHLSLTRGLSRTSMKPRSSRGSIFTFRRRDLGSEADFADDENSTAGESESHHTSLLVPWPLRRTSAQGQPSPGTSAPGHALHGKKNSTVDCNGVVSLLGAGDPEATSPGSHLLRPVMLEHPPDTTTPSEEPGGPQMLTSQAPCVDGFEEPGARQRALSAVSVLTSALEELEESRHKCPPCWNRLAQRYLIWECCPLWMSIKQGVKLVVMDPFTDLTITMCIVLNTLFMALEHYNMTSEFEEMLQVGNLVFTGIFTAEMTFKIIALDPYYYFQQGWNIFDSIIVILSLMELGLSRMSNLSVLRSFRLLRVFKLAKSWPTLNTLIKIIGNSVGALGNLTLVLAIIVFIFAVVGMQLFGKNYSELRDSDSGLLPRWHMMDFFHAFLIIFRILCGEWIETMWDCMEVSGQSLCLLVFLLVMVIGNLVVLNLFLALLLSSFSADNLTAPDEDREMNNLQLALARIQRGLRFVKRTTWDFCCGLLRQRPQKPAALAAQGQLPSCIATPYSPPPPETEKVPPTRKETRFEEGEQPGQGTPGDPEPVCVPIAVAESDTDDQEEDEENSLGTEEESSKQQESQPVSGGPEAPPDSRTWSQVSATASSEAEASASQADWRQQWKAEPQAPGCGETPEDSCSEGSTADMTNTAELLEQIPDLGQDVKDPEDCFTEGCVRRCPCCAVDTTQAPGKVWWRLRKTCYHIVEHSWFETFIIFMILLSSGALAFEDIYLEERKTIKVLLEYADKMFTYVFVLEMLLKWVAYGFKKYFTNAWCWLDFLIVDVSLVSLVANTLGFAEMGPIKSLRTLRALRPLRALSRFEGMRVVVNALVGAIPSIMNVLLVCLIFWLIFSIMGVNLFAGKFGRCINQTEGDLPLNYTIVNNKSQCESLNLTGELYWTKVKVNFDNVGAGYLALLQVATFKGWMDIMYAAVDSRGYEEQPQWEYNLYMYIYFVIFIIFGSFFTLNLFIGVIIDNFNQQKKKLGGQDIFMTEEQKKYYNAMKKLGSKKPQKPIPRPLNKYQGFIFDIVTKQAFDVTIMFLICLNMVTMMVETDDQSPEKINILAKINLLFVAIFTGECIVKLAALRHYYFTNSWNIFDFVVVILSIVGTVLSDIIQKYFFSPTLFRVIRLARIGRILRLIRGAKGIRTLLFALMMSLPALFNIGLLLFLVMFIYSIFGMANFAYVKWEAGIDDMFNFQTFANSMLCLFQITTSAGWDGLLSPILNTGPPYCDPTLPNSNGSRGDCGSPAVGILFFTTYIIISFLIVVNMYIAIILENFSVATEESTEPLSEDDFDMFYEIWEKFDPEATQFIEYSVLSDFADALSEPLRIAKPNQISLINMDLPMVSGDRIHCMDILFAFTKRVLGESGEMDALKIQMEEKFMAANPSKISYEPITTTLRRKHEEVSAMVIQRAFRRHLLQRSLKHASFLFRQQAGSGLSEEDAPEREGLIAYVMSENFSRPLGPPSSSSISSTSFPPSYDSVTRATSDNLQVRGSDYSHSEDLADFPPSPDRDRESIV
UniProt Q13936, whole entry: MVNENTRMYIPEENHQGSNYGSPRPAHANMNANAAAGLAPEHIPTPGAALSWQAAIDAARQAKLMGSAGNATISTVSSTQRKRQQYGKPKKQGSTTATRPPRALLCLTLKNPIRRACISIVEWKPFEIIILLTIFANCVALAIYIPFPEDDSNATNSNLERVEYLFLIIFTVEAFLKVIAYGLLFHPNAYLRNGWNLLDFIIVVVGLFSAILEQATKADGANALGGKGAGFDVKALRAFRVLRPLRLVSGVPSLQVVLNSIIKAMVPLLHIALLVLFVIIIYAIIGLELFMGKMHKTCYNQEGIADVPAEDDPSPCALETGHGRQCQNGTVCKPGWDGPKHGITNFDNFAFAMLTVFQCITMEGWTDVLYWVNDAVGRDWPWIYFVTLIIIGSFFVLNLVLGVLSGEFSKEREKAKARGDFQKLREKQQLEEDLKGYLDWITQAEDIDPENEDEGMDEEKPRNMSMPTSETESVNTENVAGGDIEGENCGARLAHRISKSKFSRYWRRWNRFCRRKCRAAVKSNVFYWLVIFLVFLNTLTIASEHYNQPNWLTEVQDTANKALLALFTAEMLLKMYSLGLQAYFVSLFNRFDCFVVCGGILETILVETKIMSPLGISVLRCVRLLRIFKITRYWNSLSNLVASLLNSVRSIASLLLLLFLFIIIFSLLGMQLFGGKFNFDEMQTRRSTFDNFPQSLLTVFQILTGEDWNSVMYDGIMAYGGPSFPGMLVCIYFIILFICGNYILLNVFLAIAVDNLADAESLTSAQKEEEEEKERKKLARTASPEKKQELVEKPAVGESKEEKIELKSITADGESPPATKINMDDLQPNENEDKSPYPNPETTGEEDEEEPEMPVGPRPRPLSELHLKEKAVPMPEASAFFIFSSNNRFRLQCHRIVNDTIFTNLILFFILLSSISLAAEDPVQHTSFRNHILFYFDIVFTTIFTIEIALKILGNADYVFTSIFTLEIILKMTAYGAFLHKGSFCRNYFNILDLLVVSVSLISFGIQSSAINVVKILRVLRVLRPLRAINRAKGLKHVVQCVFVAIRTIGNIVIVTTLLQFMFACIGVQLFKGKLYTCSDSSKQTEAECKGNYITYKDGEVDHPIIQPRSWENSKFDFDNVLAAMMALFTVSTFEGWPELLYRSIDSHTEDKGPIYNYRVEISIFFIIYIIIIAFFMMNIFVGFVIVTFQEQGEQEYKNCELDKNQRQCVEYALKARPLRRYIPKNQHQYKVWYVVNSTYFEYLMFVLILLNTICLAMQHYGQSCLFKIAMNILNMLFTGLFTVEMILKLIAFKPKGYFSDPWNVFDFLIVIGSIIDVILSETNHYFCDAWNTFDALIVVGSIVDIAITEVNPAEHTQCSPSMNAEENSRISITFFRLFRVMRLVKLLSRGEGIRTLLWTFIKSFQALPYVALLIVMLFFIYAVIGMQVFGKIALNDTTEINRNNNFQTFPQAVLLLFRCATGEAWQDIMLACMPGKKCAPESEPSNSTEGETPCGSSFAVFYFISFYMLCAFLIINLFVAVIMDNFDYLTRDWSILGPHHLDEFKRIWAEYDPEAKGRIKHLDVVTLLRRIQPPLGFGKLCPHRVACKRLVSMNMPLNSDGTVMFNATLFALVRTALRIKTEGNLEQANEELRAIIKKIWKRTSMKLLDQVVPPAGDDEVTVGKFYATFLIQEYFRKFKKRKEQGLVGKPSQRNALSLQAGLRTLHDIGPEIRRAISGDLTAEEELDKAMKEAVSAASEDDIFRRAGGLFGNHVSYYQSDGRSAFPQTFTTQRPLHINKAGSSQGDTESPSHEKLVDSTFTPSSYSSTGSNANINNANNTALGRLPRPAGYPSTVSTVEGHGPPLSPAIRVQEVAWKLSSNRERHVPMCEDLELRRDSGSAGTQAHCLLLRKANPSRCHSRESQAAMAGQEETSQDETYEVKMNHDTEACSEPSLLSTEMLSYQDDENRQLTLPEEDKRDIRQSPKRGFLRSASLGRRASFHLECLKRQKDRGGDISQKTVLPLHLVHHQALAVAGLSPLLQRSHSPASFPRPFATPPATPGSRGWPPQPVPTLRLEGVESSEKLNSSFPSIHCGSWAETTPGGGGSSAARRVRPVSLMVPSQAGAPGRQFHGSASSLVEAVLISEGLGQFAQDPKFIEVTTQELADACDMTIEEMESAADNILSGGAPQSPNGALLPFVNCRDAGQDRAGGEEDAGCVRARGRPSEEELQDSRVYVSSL
UniProt Q12809: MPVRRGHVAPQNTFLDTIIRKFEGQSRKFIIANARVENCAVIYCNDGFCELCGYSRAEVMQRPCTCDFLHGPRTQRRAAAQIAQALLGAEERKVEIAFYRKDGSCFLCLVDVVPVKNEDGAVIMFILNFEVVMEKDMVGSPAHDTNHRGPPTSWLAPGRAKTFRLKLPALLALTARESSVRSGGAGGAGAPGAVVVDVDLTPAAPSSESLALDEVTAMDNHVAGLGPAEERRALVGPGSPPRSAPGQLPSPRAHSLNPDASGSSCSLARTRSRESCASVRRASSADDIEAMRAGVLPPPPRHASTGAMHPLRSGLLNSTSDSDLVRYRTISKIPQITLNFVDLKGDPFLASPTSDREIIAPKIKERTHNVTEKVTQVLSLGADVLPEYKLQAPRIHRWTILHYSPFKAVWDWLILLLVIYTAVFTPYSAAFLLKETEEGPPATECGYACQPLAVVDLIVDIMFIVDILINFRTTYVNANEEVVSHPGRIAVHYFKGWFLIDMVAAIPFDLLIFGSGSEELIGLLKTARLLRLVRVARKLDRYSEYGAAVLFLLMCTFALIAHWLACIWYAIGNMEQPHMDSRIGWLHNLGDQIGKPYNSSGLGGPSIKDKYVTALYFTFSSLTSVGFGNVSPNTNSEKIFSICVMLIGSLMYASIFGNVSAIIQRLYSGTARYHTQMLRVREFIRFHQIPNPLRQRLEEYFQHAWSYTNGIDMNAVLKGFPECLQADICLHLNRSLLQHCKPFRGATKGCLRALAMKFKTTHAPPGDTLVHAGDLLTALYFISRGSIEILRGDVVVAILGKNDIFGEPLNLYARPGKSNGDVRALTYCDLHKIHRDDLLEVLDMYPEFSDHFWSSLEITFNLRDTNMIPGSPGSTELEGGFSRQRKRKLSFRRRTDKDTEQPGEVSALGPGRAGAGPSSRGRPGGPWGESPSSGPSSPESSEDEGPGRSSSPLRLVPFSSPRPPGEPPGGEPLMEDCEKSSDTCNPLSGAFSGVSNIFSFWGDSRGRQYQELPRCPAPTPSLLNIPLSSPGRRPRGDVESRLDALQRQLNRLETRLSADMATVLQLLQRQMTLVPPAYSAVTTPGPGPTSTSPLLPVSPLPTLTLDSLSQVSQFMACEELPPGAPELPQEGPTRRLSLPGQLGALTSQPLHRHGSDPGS

How the values were obtained:
NaV1.5 [1] = biological target: T1, NaV1.5 (Homo sapiens, UniProt Q14524); assay: Second IonWorks Quattro NaV1.5 screen (GSK, Q2); details: second independent Quattro screening; −log10 of IC50 in Molar; 0.0 = pIC50 ≤ 0 fitted
NaV1.5 [2] = biological target: T1, NaV1.5; assay: IonWorks Quattro NaV1.5 screen (AstraZeneca, Q)
CaV1.2 = CaV1.2 (Homo sapiens, UniProt Q13936); assay: IonWorks Quattro CaV1.2 screen (AstraZeneca, Q)
Kv4.3/KChIP2.2 = biological target: T2, Kv4.3/KChIP2.2 (Homo sapiens, UniProt Q9UK17); assay: IonWorks Quattro Kv4.3/KChIP2.2 screen (AstraZeneca, Q); type: cell-based; details: −log10 of IC50 in Molar, Hill n = 1, 0.0 = pIC50 ≤ 0 fitted
T2 sequence (Q9UK17 1-655): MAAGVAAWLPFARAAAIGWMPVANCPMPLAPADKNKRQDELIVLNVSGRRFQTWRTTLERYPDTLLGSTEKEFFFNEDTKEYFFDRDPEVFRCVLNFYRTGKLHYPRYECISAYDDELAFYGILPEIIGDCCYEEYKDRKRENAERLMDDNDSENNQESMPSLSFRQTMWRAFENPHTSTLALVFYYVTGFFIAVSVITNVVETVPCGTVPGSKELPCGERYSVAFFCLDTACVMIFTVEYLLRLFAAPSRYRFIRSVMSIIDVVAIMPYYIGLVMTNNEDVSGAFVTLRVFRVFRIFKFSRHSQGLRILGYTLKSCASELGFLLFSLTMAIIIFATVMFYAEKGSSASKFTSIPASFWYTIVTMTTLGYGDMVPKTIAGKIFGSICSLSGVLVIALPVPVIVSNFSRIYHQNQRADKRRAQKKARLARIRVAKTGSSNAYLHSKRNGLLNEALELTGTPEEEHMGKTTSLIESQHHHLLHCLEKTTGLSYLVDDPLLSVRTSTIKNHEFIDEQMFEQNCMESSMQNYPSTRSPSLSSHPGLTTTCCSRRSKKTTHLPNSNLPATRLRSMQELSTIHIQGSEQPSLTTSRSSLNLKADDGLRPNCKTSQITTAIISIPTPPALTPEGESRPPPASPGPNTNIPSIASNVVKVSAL
T2 sequence (Q9NS61 1-270 partner): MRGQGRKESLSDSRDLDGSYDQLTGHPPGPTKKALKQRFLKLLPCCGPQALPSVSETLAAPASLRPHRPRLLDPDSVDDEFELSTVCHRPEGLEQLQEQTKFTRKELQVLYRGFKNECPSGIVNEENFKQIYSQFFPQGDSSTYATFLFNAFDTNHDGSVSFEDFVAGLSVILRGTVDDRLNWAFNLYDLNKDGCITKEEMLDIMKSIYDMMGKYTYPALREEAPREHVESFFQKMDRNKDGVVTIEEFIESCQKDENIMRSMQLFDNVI

KCNQ1/MinK = KCNQ1/MinK (Homo sapiens, UniProt P51787); assay: IonWorks Quattro KCNQ1/MinK screen (AstraZeneca, Q); details: −log10 of IC50 in Molar, Hill n = 1, 0.0 = pIC50 ≤ 0 fitted
hERG [3] = biological target: T3, hERG (Homo sapiens, UniProt Q12809); assay: cell-based
hERG [4] = biological target: T3, hERG
hERG [5] = biological target: T3, hERG; assay: IonWorks Quattro hERG screen (AstraZeneca, Q)
[6] = IonWorks Quattro, −log10 of IC50 in Molar, Hill n = 1, 0.0 = pIC50 ≤ 0 fitted

CC1=NN(c2ccc(C)c(C)c2)C(=O)/C1=N\Nc1cccc(-c2cccc(C(=O)O)c2)c1O [Eltrombopag] was tested, and the “NaV1.5 pIC50 (Q2)” value (NaV1.5 [1]) was 3.5 and the “NaV1.5 pIC50 (Q)” value (NaV1.5 [2]; [6]) was 3.8.
Cc1nc(Nc2ncc(C(=O)Nc3c(C)cccc3Cl)s2)cc(N2CCN(CCO)CC2)n1.O [Dasatinib] was tested, and the “NaV1.5 pIC50 (Q2)” value (NaV1.5 [1]) was 3.4 and the “CaV1.2 pIC50 (Q)” value (CaV1.2) was 3.4.
For O=C(O)c1ccc(-n2nc(-c3ccccc3O)nc2-c2ccccc2O)cc1 [Deferasirox], the “Kv4.3 pIC50 (Q)” value (Kv4.3/KChIP2.2) was 4.3.
O=C1c2cccc3c2[C@H](CCC3)CN1[C@@H]1CN2CCC1CC2 [Palonosetron] was tested, and the “KCNQ1 pIC50 (Q)” value (KCNQ1/MinK) was 4.3.
CCN(CC)CCNC(=O)c1c(C)[nH]c(/C=C2\C(=O)Nc3ccc(F)cc32)c1C [Sunitinib] was tested, and the “NaV1.5 pIC50 (Q)” value (NaV1.5 [2]) was 4.8.
For Cc1c(O)cccc1C(=O)N[C@@H](CSc1ccccc1)[C@H](O)CN1C[C@H]2CCCC[C@H]2C[C@H]1C(=O)NC(C)(C)C [Nelfinavir], the “NaV1.5 pIC50 (Q)” value (NaV1.5 [2]) was 4.1 and the “KCNQ1 pIC50 (Q)” value (KCNQ1/MinK) was 4.1.
With N[C@@H](CC(=O)N1CCn2c(nnc2C(F)(F)F)C1)Cc1cc(F)c(F)cc1F [Sitagliptin] the IC50 (hERG [3]) was 0.501 mM.
Cc1cn(-c2cc(NC(=O)c3ccc(C)c(Nc4nccc(-c5cccnc5)n4)c3)cc(C(F)(F)F)c2)cn1 [Nilotinib] was tested, and the “hERG pIC50 (Q)” value (hERG [4]) was 4.2.
For C[C@@H](O)[C@H]1C(=O)N2C(C(=O)O)=C(S[C@@H]3CN[C@H](CNS(N)(=O)=O)C3)[C@H](C)[C@H]12 [Doripenem], the IC50 (hERG [5]) was 7.94 mM and the “NaV1.5 pIC50 (Q)” value (NaV1.5 [2]; [6]) was 2.8.
With O=C(O[C@H]1CN2CCC1CC2)N1CCc2ccccc2[C@@H]1c1ccccc1 [Solifenacin] the “Kv4.3 pIC50 (Q)” value (Kv4.3/KChIP2.2) was 4.3.
CO[C@H]1C[C@@H]2CC[C@@H](C)[C@@](O)(O2)C(=O)C(=O)N2CCCC[C@H]2C(=O)O[C@H]([C@H](C)C[C@@H]2CC[C@@H](OCCO)[C@H](OC)C2)CC(=O)[C@H](C)/C=C(\C)[C@@H](O)[C@@H](OC)C(=O)[C@H](C)C[C@H](C)/C=C/C=C/C=C/1C [Everolimus] was tested, and the IC50 (hERG [5]) was 15.8 mM and the IC50 (hERG [3]) was 0.794 mM.
CCCc1nc(C)c2c(=O)[nH]c(-c3cc(S(=O)(=O)N4CCN(CC)CC4)ccc3OCC)nn12 [Vardenafil] was tested, and the “KCNQ1 pIC50 (Q)” value (KCNQ1/MinK) was 3.2.

Read-outs that look alike come from different tables or passages of the source.
